Patent EP0557345B1, “1,3-BIS- 3-(MONO- OR POLY-HYDROXY)ACYLAMINO-5-(MONO- OR POLY-HYDROXYALKYL)AMINOCARBONYL-2,4,6-TRIIODO-BENZOYL-AMINO]-HYDROXY- OR HYDROXYALKYL-PROPANES, THEIR METHODS OF PREPARATION AND X-RAY CONTRAST MEDIA CONTAINING THEM” (DIBRA S.p.A., priority 1990, dated 1992)

Test: Solubility in water
Type: physicochemical

Substance	Solubility in H₂O (at 20°C)	also measured
1,3-bis-[N-methyl-N-[3-(L-2-hydroxy-propionyl)amino-5-(1,3-dihydroxy-isopropyl)aminocarbonyl-2,4,6-triiodo-benzoyl]amino]-2-hydroxy-propane [Example 7]		Solubility in H₂O (at 22°C): > 100 % w/v
1,3-bis-[N-methyl-N-[3-[N-methyl-N-(L-2-hydroxy-propionyl)]amino-5-(1,3-dihydroxy-isopropyl)aminocarbonyl-2,4,6-triiodo-benzoyl]amino]-2-hydroxy-propane [Example 27]	100 % w/v	
1,3-bis-[N-methyl-N-[3-hydroxyacetylamino-5-[N-methyl-N-(1,3-dihydroxy-isopropyl)]aminocarbonyl-2,4,6-triiodo-benzoyl]amino]-2-hydroxy-propane [Example 18]		Solubility in H₂O (at 25°C): 100 % w/v
1-[3-(L-2-hydroxy-propionyl)amino-5-(1,3-dihydroxyisopropyl)aminocarbonyl-2,4,6-triiodo-benzoyl-amino]-3-[3-(L-2-hydroxy-propionyl)amino-5-[N-methyl-N-(D-1-deoxy-glucitol)]aminocarbonyl-2,4,6-triiodo-benzoyl-amino]-2-hydroxy-propane [Example 13]	> 100 % w/v	
